## Antibody variant affinities, Ab-95 light chain, assay 2

From the AlphaSeq antibody data of Engelhart et al. 2022 (doi:10.1038/s41597-022-01779-4), copy in the FLAb collection.

Target: peptide PDVDLGDISGINAS, taken from heptad repeat 2 (HR2) of SARS-CoV-2 spike.

The variants keep the heavy chain, the linker and the frameworks of Ab-95 (scFv order VH, a 15-residue (Gly4Ser)3 linker, VL).
VH: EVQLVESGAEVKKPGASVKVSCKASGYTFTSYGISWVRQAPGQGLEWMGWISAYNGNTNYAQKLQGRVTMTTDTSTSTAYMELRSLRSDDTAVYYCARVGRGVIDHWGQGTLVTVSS
VL: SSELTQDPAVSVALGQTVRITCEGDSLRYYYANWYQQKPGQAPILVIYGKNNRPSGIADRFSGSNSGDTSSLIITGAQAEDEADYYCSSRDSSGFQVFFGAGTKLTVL

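Phage display of a naive human antibody library on the peptide gave the parent. The library (AAYL52) carries one to three amino acid substitutions per variant, with no insertions or deletions. AlphaSeq pools MATa yeast showing the antibodies with MATalpha yeast showing the peptide. Mating (16 h, 30 °C) was followed by selection of diploids and sequencing of their barcodes. Each replicate has its own calibration line, from reference interactions of the BCL2 family. Each pool was mated in three replicate cultures.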

Variants are written as CDR1, CDR2 and CDR3 of the light chain (limits as in the source). Parent: EGDSLRYYYAN, GKNNRPS, SSRDSSGFQVF.
Affinities are written as log10 Kd with Kd in nM; a lower number is a better binder.
Replicates are averaged; those with no signal do not enter the mean.
"nd" marks a missing value. The strain was present, yet no cells mated with the target were sequenced in that replicate, which points to weak or no binding.
Background: pairings of library AAYL52 with three empty control strains gave a value in 28% of cases (median 3.91, 5th percentile 2.90). Values in that range, when seen in few replicates, are hard to tell from nonspecific mating. The control count says in how many pairings with the empty strains this scFv gave a signal, with their mean in brackets.

CDR-L1,CDR-L2,CDR-L3,"replicates, log10 nM","log10 Kd (nM), mean",control signals
QGDSLRWYYAN,GCNNRPS,SSRDSSGFQVF,3.76 / 3.79 / 4.25,3.93,5 of 9 (4.17)
EGDSLRYYYAN,GKNFRPS,YSTDSSGFQVF,2.74 / 2.68 / 2.39,2.60,2 of 9 (3.87)
EGDSLRYYYAN,GKQVRPM,SSRDSSGFQVF,3.48 / 2.54 / 2.36,2.79,2 of 9 (4.19)
EGDSYRYYYAN,GQNNRPS,SSVDSSGFQVF,1.77 / 2.12 / 1.22,1.70,3 of 9 (3.05)
EGDSLFYYYAN,GKNNRMS,SSRDSSVFQVF,3.46 / 3.72 / 2.76,3.32,3 of 9 (3.99)
EHWSLRYYYAN,GINNRPS,SSRDSSGFQVF,nd / 4.32 / 3.73,4.03,3 of 9 (4.41)
EGDSLRYYYAN,GKSNRPS,WSRDSSGFQVN,nd / 4.18 / nd,4.18,0 of 9
EGHSLRYYYAN,GENNRPS,SSRDCSGFQVF,2.21 / 2.13 / 2.28,2.21,2 of 9 (4.47)
EGDSLRYYYAN,GKNNRPS,SSQDRSGFQVF,2.35 / 2.24 / 1.61,2.06,1 of 9 (4.06)
EGDSLRYYYAN,GKNNRPS,TSRDSMGFSVF,4.46 / 4.99 / 2.86,4.10,4 of 9 (4.13)
EGDMLRYYYGN,GKNNRPS,SSRDSSGSQVF,4.12 / 4.29 / nd,4.21,3 of 9 (3.93)
EGDSLRYYYAN,GKNWRPS,SSRDSSGTQLF,nd / nd / nd,nd,2 of 9 (3.68)
EGDSLRYYYIW,GKNNRPS,SSRSSSGFQVF,nd / nd / 4.13,4.13,0 of 9
EEESLRYYYAN,GKNNRPS,SSRDSSGFQCF,4.27 / nd / nd,4.27,4 of 9 (4.13)
EGDSLRYYYAN,GKSNRPS,SSRDSSGWWVF,2.56 / 2.86 / 2.05,2.49,1 of 9 (3.80)
EGISLRYYYAN,GKNNRYS,SSRDSSGDQVF,3.69 / nd / 3.71,3.70,2 of 9 (3.45)
EGDSLRYYYAN,GKNNHPS,SSRDSSGFQMG,nd / 4.61 / nd,4.61,1 of 9 (4.04)
EGDSLRRYYAN,GKNNRPD,SSRDSSGFQYF,nd / 4.13 / nd,4.13,0 of 9
EGDSLRVYKAN,GKNNRPS,RSRDSSGFQVF,2.97 / 2.72 / nd,2.85,4 of 9 (3.53)
EGDSLRCYYAN,GKNNLPS,SSDDSSGFQVF,nd / nd / nd,nd,1 of 9 (3.49)
EGDSLRYYYAN,NKMIRPS,SSRDSSGFQVF,2.55 / 2.35 / 2.26,2.39,1 of 9 (5.28)
EGDSLPYYYAN,GKNNRES,SSRKSSGFQVF,4.42 / nd / nd,4.42,1 of 9 (4.35)
EGDSLRYYPAN,NKNNRPS,SSRDSWGFQVF,2.43 / 1.94 / 1.83,2.07,1 of 9 (4.44)
EWDSLRYYYAN,GKNNRFS,SSRDSKGFQVF,3.44 / nd / nd,3.44,0 of 9
EGDSLRYYYAN,GKNNRVS,SSRDSSGIQNF,2.33 / 2.08 / 1.83,2.08,2 of 9 (3.58)
ERDSLCYYYAN,GKNNRPS,SSRDPSGFQVF,3.10 / 3.24 / 2.91,3.09,3 of 9 (4.55)
EGDSLRYYYAF,GKNNRPS,NSRDSSGEQVF,3.86 / 5.07 / 3.95,4.29,1 of 9 (5.05)
EGDSLRYYYAW,GKNNRPS,SSRDSSGFQVF,nd / 4.78 / nd,4.78,4 of 9 (3.98)
EFDSLRYYYAC,GKNNRPS,SSCDSSGFQVF,nd / nd / nd,nd,1 of 9 (3.09)
EGDSLRYYYAE,GKNNRPS,SSRESSGFQVM,3.70 / 3.90 / nd,3.80,4 of 9 (3.92)
EGDSLRYYYAN,GKNNPCE,SSRDSSGFQVF,4.44 / nd / nd,4.44,2 of 9 (3.22)
EQSSLRYYYAN,GKNNRPS,SSRDSSGFQVH,nd / nd / nd,nd,3 of 9 (3.52)
EGGSLRYYYAN,GKNNRPS,CSRDSSGFQVW,2.92 / 2.27 / 2.44,2.54,4 of 9 (3.52)
EGDSLRYNYAC,GKNNRPS,SSRDSSGIQVF,2.59 / 3.24 / 3.13,2.99,1 of 9 (4.23)
EGDSLTYYYAN,GKNNRPS,SSRDSSGFAVH,2.64 / 2.99 / 2.23,2.62,0 of 9
EGDSLRYYYAN,GKNNRPS,SLRDCSGFQVH,nd / 5.21 / nd,5.21,2 of 9 (3.68)
EGDSLRYYYAN,GKNNRPS,RSDDSSGAQVF,3.38 / 3.64 / nd,3.51,3 of 9 (2.93)
QGDSLRYFYAN,GKNNRPS,SSRDSSIFQVF,nd / nd / 2.97,2.97,3 of 9 (3.69)
EHLSLRYYYAN,GKNNRPS,SSHDSSGFQVF,3.38 / 3.27 / 2.59,3.08,4 of 9 (3.45)
EGDSLRYYYAN,GPNNRPS,SIRDSSGMQVF,4.57 / nd / 3.55,4.06,1 of 9 (3.36)
EGDYCRYYYAN,GKNNLPS,SSRDSSGFQVF,nd / nd / 3.07,3.07,1 of 9 (4.27)
EGDSLRRTYAN,GKNNRPS,SSRDSSGMQVF,2.22 / 2.03 / 1.83,2.03,2 of 9 (3.40)
EGDSNRYYYAN,GKNIRTS,SSRDSSGFQVF,nd / nd / nd,nd,4 of 9 (3.62)
EGDWLRYYYGN,GKNKRPS,SSRDSSGFQVF,4.82 / nd / nd,4.82,3 of 9 (4.31)
DGDSLRYYYAN,GKNNRPD,ASRDSSGFQVF,2.29 / 2.10 / 1.77,2.05,4 of 9 (3.63)
EGDSLRYDYAN,GKNNRPS,DSRDSFGFQVF,3.24 / 4.12 / nd,3.68,0 of 9
EMDSYRYYYAN,GANNRPS,SSRDSSGFQVF,nd / nd / 3.81,3.81,0 of 9
EGDSLRYYYLN,GLNNRPS,SSRDSSGFQVF,5.43 / 4.75 / nd,5.09,2 of 9 (3.32)
EGDSLRYYYTF,GKNNRPS,SSRDSSGTQVF,nd / nd / nd,nd,0 of 9

From the list, the first 5 with no signal in any replicate:

{"CDR-L1": "EGDSLRYYYAN", "CDR-L2": "GKNWRPS", "CDR-L3": "SSRDSSGTQLF", "replicates, log10 nM": "nd / nd / nd", "log10 Kd (nM), mean": "nd", "control signals": "2 of 9 (3.68)"}
{"CDR-L1": "EGDSLRCYYAN", "CDR-L2": "GKNNLPS", "CDR-L3": "SSDDSSGFQVF", "replicates, log10 nM": "nd / nd / nd", "log10 Kd (nM), mean": "nd", "control signals": "1 of 9 (3.49)"}
{"CDR-L1": "EFDSLRYYYAC", "CDR-L2": "GKNNRPS", "CDR-L3": "SSCDSSGFQVF", "replicates, log10 nM": "nd / nd / nd", "log10 Kd (nM), mean": "nd", "control signals": "1 of 9 (3.09)"}
{"CDR-L1": "EQSSLRYYYAN", "CDR-L2": "GKNNRPS", "CDR-L3": "SSRDSSGFQVH", "replicates, log10 nM": "nd / nd / nd", "log10 Kd (nM), mean": "nd", "control signals": "3 of 9 (3.52)"}
{"CDR-L1": "EGDSNRYYYAN", "CDR-L2": "GKNIRTS", "CDR-L3": "SSRDSSGFQVF", "replicates, log10 nM": "nd / nd / nd", "log10 Kd (nM), mean": "nd", "control signals": "4 of 9 (3.62)"}